The values below come from ChEMBL document CHEMBL1131130, “Structure-based design of beta-lactamase inhibitors. 1. Synthesis and evaluation of bridged monobactams” (J Med Chem, 1998).

Amino acid sequences for entries named in this document (tags omitted). A change or cut given only in a name is not applied to a line headed by its entry.
UniProt P24735: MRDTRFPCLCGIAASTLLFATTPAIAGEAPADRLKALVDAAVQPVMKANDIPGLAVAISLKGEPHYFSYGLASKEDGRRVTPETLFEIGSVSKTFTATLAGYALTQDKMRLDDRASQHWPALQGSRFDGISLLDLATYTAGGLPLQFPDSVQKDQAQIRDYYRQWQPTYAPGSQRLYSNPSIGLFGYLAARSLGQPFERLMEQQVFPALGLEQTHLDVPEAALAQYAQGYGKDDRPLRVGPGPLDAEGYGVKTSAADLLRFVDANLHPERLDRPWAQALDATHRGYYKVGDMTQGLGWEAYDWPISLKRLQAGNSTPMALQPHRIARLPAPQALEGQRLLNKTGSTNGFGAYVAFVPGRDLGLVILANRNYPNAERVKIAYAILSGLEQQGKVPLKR

This test concerns the target Beta-lactamase (Pseudomonas aeruginosa (strain ATCC 15692 / PAO1 / 1C / PRS 101 / LMG12228), UniProt P24735). Put plainly: Inhibition of Pseudomonas aeruginosa 18SH Beta-lactamase.

As to `O=C(Nc1ccccc1)N1CC[C@@H]2[C@H]1C(=O)N2S(=O)(=O)[O-].[Na+]`, the IC50 (as a rule, the concentration that inhibits the measured activity by half) is 0.42 µM.
